Earlier results on one compound are cited in patent US20140179779A1, “Deuterium Substituted Fumarate Derivatives” (Biogen IDEC MA Inc., priority 2012, published 2014).

The structures appear in SMILES notation.

The test system of the series is ALS. The conditions noted are these: ALS patients; cited from earlier work.

Consider `Nc1nc2ccc(OC(F)(F)F)cc2s1` [Rilutek (riluzole), riluzole], for which the extension of survival entry is listed as “approximately 3 months”.
